# Assay results published in ChEMBL document CHEMBL4834454, “Rational design of cannabinoid type-1 receptor allosteric modulators: Org27569 and PSNCBAM-1 hybrids” (Bioorg Med Chem, 2021).
# Protein sequences, listed by entry. Tags and fused reporters are not part of them.
# UniProt P21554, whole entry: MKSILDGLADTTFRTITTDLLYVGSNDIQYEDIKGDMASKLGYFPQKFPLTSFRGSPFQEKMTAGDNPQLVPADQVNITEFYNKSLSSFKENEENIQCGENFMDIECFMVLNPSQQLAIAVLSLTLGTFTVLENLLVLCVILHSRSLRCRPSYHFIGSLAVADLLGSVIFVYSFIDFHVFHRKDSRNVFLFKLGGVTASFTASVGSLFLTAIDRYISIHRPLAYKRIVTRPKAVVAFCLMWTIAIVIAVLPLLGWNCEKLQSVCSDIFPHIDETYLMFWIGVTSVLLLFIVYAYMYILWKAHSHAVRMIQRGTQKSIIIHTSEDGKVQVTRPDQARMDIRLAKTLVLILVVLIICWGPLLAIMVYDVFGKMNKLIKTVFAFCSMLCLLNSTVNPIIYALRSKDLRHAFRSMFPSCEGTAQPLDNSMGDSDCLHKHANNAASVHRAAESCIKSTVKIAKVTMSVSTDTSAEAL
# The source made the active and inactive calls. The calls are words filed in the database; no cut-off is given here.
# How the values were obtained:
# Cannabinoid receptor 1 [1] = biological target: T1, Cannabinoid receptor 1 (Homo sapiens, UniProt P21554); assay: Incomplete insurmountable allosteric antagonist activity at human CB1 receptor expressed in CHO-RD-HGA16 cells overexpressing Galpha16 assessed as inhibition of CP55940-stimulated calcium mobilization preincubated for 15 mins followed by agonist addition and measured every 1 sec for 90 secs by Calcium-3 dye based FLIPR assay relative to control; format: functional, cell-based; settings: time 990.0 sec
# Cannabinoid receptor 1 [2] = biological target: T1, Cannabinoid receptor 1; assay: Incomplete insurmountable allosteric antagonist activity at human CB1 receptor expressed in HEK293 cell membrane assessed as inhibition of CP55940-stimulated [35S]GTPgammaS binding at 100 uM incubated for 60 mins by [35S]GTP-gammaS binding assay; format: functional, cell membranes
# Cannabinoid receptor 1 [3] = biological target: T1, Cannabinoid receptor 1; assay: Incomplete insurmountable allosteric antagonist activity at human CB1 receptor expressed in HEK293 cell membrane assessed as inhibition of CP55940-stimulated [35S]GTPgammaS binding incubated for 60 mins by [35S]GTP-gammaS binding assay relative to control; format: functional, cell membranes; settings: filed as allosteric antagonist
# Cannabinoid receptor 1 [4] = biological target: T1, Cannabinoid receptor 1; assay: Allosteric antagonist activity at human CB1 receptor expressed in HEK293 cell membrane assessed as inhibition of CP55940-stimulated [35S]GTPgammaS binding incubated for 60 mins by [35S]GTP-gammaS binding assay; format: functional, cell membranes; settings: filed as allosteric antagonist
structure (smiles),measurement,setting,value
O=C(NCCc1ccc(N2CCCCC2)cc1)Nc1ccc(Cl)cc1,inhibition,Cannabinoid receptor 1 [1],26.4%
same,Activity,Cannabinoid receptor 1 [2],inactive
same,inhibition,Cannabinoid receptor 1 [3],64.6%
same,Kb,Cannabinoid receptor 1 [4],38 µM
